{"sequences": {"note": "Sequences of proteins named here, by UniProt entry; tags and fusion partners are left off.", "UniProt Q9QUQ5, whole entry": "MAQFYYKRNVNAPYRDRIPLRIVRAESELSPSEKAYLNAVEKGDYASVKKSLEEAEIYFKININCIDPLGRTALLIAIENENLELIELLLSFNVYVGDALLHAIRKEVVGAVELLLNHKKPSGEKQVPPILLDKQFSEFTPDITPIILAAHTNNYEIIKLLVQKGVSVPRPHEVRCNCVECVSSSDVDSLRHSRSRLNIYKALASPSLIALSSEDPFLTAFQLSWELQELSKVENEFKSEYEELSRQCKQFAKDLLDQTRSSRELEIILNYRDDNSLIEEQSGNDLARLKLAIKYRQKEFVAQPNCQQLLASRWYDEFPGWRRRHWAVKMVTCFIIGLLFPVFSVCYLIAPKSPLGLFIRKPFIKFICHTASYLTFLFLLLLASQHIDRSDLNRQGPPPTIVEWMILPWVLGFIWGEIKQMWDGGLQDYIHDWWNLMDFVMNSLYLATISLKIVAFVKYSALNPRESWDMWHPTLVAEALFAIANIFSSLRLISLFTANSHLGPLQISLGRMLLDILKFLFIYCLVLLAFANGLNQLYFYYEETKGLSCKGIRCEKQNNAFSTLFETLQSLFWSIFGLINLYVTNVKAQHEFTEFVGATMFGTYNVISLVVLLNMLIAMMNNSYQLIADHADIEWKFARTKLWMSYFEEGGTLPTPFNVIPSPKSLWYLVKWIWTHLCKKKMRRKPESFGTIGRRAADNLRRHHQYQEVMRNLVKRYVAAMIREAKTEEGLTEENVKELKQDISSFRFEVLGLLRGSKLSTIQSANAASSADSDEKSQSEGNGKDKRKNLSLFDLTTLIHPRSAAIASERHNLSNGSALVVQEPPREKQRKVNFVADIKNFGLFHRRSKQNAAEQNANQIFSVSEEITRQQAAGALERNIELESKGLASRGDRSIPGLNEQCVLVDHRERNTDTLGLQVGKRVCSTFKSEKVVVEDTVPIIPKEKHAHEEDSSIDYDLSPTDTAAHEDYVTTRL"}, "source": "PubChem BioAssay AID2247", "about": "(Johns Hopkins Ion Channel Center, 2010)", "note": "The entries are a selection whose mix differs from that of the whole data set. Some tests of the compounds listed are not included; inactive here does not mean inactive elsewhere. The source made the active and inactive calls.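 How the source made its calls: active means B-score over 3 SD under the library average, no early fluorescence shift, positive overall ratio signal; inactive means the rest.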", "data": [{"target": "Short transient receptor potential channel 4 (Mus musculus) (UniProt Q9QUQ5)", "assay": "inhibitors of mouse TRPC4 channel, primary screen, Fluo4 calcium, HEK293 TRPC4beta/mu-opioid cells (AID 2247)", "settings": "DAMGO-evoked Fluo4 calcium flux, at 10 µM", "values": [{"smiles": "O=C(NCC1(N2CCCCC2)CCCCC1)c1cc([N+](=O)[O-])ccc1Cl", "outcome": "inactive"}, {"smiles": "CN1[C@@H]2CC[C@H]1CC(OC(=O)C(O)(c1ccccc1)c1ccccc1)C2", "note": "(stereo partly drawn)", "outcome": "inactive"}, {"smiles": "CCN(CC)CC(C)C(C)OC(=O)C(O)(c1ccccc1)c1ccccc1", "note": "(stereo not drawn)", "outcome": "inactive"}, {"smiles": "COc1cc(SC)ccc1C(=O)NCC1(N(C)C)CCCCC1", "outcome": "inactive"}, {"smiles": "CC(C)N1C(=O)CC2(CCN(CCOC(=O)C(O)(c3ccccc3)c3ccccc3)CC2)C1=O", "outcome": "inactive"}, {"smiles": "Cc1ccc(C(=O)NCC2(N3CCCCC3)CCCCC2)cc1", "outcome": "inactive"}, {"smiles": "Cc1ccccc1C(=O)NCC1(N2CCCCC2)CCCCC1", "outcome": "inactive"}, {"smiles": "CN(C)C1CCCC1OC(=O)C(O)(c1ccccc1)c1ccccc1", "note": "(stereo not drawn)", "outcome": "inactive"}, {"smiles": "C=CCN1CCN(CCOC(=O)C(O)(c2ccccc2)c2ccccc2)CC1", "outcome": "inactive"}, {"smiles": "O=C(NCC1(N2CCCCC2)CCCCC1)c1cc(F)c(F)cc1Cl", "outcome": "inactive"}, {"smiles": "COc1ccc(C(=O)NCC2(N(C)C)CCCCC2)cc1", "outcome": "inactive"}, {"smiles": "Cc1cc(C(=O)NCC2(N3CCCCC3)CCCCC2)ccc1[N+](=O)[O-]", "outcome": "inactive"}, {"smiles": "CCN1CCCC(OC(=O)C2(O)c3ccccc3C=Cc3ccccc32)C1", "note": "(stereo not drawn)", "outcome": "inactive"}, {"smiles": "O=C(NCC1(N2CCCCC2)CCCCC1)c1cccc(Br)c1", "outcome": "inactive"}, {"smiles": "CN(C)C1(CNC(=O)c2ccc(Br)cc2)CCCCC1", "outcome": "inactive"}, {"smiles": "COc1cc(C(=O)NCC2(N(C)C)CCCCC2)c([N+](=O)[O-])cc1OC", "outcome": "inactive"}, {"smiles": "COc1cccc(C(=O)NCC2(N3CCCCC3)CCCCC2)c1", "outcome": "inactive"}, {"smiles": "COc1ccc(Cl)cc1C(=O)NCC1(N(C)C)CCCCC1", "outcome": "inactive"}, {"smiles": "O=C(NCC1(N2CCCCC2)CCCCC1)c1cccc(Cl)c1", "outcome": "inactive"}, {"smiles": "O=C(OC1CN2CCC1CC2)C(CO)(c1ccccc1)c1ccccc1", "note": "(stereo not drawn)", "outcome": "inactive"}, {"smiles": "COc1ccc(Br)c(C(=O)NCC2(N3CCCCC3)CCCCC2)c1", "outcome": "inactive"}, {"smiles": "CC(C)Oc1ccc(C(=O)NCC2(N(C)C)CCCCC2)cc1", "outcome": "inactive"}, {"smiles": "CN(C)c1cccc(C(=O)NCC2(N(C)C)CCCCC2)c1", "outcome": "inactive"}]}]}
